In patent US12691110B2, “Topotecan for proliferative vitreoretinopathy” (Massachusetts Eye and Ear Infirmary, priority 2022, dated 2026):

Test system: C-PVR cells
Test: CyQuant cell proliferation assay in human patient derived primary cultures of PVR
Assay type: cell-based
Protocol: Twelve candidate drugs were tested at 2 concentrations at 72 hours for their effects on proliferation and cytotoxicity in C-PVR cells. […] Each anti-proliferative drug was tested at 2 concentrations determined by using the IC50 of each drug. The data was expressed as percent cell inhibition.
The cells were washed and the CyQuant Direct nucleic acid stain was added and incubated at 37 degrees in the incubator. Fluorescence read outs were measured at wavelengths as instructed in the protocol.

CC[C@@]1(O)C(=O)OCc2c1cc1n(c2=O)Cc2cc3c(CN(C)C)c(O)ccc3nc2-1 [Topotecan, topotecan]
synergistic effect in combination with other drugs on proliferation of C-PVR cells: 6 out of 10 showed a synergistic effect
